In this assay the target is T1, Ileal sodium/bile acid cotransporter (Homo sapiens, UniProt Q12908).
T1 sequence (Q12908 whole entry): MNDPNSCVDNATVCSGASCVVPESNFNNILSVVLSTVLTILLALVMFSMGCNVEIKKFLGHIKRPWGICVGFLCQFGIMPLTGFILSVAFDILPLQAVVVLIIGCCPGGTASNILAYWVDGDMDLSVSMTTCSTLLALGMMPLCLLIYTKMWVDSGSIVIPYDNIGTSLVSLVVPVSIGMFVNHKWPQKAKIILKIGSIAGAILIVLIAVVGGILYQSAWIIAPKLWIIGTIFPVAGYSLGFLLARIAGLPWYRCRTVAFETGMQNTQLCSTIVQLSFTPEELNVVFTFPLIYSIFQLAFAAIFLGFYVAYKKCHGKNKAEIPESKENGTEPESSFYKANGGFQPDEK
As to the kind of experiment: Inhibition of human ASBT expressed in MDCK cells assessed as inhibition of [3H]taurocholic acid uptake after 10 mins by liquid scintillation counting. The format is cell-based. Put shortly:
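Stably transfected hASBT-MDCK cells grown in DMEM with 10% FBS, penicillin/streptomycin and 1 mg/mL geneticin, seeded at 1.5 million/well, induced with 10mM sodium butyrate for 12-17 h before study on day 4. After HBSS washes, monolayers exposed 10 min at 37°C (shaking) to 2.5µM taurocholic acid with 0.5µCi/mL 3H-TCA plus conjugate (0-100 µM monoanions, 0-1000 µM dianions). Cells washed with chilled sodium-free buffer, lysed in NaOH, neutralized, counted.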

Among the data in ChEMBL document CHEMBL1177709, “Molecular switch controlling the binding of anionic bile acid conjugates to human apical sodium-dependent bile acid transporter” (J Med Chem, 2010) are Ki values, retold here.

`CC(CCC(=O)NC(CCC(=O)Nc1ccccc1)C(=O)O)C1CCC2C3C(O)CC4CC(O)CCC4(C)C3CCC12C` (stereo unspecified): the inhibition constant Ki worked out at 2010 nM.
